Tests used:
rats given endotoxin [1] = details: 5 h after endotoxin
rats given endotoxin [2] = test: 125I-fibrinogen in the blood after endotoxin (experimental endotoxaemia); assay type: in vivo, Sprague-Dawley rats; details: compared to sham operated group I; group III (tranexamic acid 2 × 50 mg/kg iv), group VII (Hep low 25 U/kg + 25 U/kg/h)
Description: The body temperature was maintained at.
Adjustment for multiplicity was done using Scheffe.

NC[C@H]1CC[C@H](C(=O)O)CC1 [tranexamic acid]
fibrin accumulation in the lung and the kidneys (rats given endotoxin [1]): no such accumulation | fibrin accumulation in the spleen (rats given endotoxin [1]; compared to sham operated rats (group I), group III): significant increase | fibrinogen in blood 5 h after endotoxin (rats given endotoxin [2]): significantly decreased

From patent US7449446B2, “Combination product comprising melagatran and dexamethasone” (AstraZeneca AB, priority 2001, dated 2008)
